Consider 1 substance from patent US5643954A, “Method of preventing and alleviating stress in a healthy mammal in need thereof” (priority 1993, dated 1997).

This test deals with hexenal effects. To be noted: pre-administration.

Turning to aminoacetic acid [claimed preparation], the “duration of hexenal sleep, duration and expression of phenamine and apomorphine stereotypy and arecoline hyperkinesia” value is given as “do not change”.
